Assay results as given in US20090137572A1, “2-substituted-4-heteroaryl-pyrimidines useful for the treatment of proliferative disorders” (priority 2004, published 2009).

Sequences of proteins named here, by UniProt entry; tags and fusion partners are left off.
UniProt O14965, whole entry: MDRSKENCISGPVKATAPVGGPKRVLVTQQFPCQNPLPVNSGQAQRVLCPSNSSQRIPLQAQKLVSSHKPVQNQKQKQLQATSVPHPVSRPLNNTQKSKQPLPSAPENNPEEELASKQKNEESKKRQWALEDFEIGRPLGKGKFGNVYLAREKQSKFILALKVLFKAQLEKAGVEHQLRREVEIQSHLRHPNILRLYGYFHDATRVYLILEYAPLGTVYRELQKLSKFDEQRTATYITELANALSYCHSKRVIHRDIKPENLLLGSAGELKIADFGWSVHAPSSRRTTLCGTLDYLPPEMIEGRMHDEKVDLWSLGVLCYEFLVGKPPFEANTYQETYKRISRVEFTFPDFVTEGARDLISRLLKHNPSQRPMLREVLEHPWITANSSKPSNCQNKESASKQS

Biological target: Aurora A kinase (Homo sapiens, UniProt O14965)
Assay: Aurora-A (human) kinase assay (Kemptide substrate)
Assay type: biochemical
Details: pIC50 is -log(IC50, M); 15 μM ATP

Kinase Inhibition pIC50 Aurora A kinase	SMILES
6.5	COCCOc1cc(C(F)(F)F)cnc1-c1nc(C)c(-c2ccnc(Nc3ccc(N4CCOCC4)cc3)n2)s1
7.3	CC(=O)N1CCN(c2ccc(Nc3nccc(-c4sc(-c5cccnc5)nc4C)n3)cc2)CC1
